One molecule from ChEMBL document CHEMBL1133613, “1-[4-(3-Phenylalkyl)phenyl]-2-aminopropanes as 5-HT(2A) partial agonists” (J Med Chem, 2000) can be followed below.

The term pKi denotes the Ki on a negative log10 scale, so that one unit is a factor of ten. A low value points to a large Ki.

pKi: −log10 of the molar value.

In this assay the target is T1, 5-hydroxytryptamine receptor 2C (Rattus norvegicus, UniProt P08909).
T1 sequence (P08909 whole entry): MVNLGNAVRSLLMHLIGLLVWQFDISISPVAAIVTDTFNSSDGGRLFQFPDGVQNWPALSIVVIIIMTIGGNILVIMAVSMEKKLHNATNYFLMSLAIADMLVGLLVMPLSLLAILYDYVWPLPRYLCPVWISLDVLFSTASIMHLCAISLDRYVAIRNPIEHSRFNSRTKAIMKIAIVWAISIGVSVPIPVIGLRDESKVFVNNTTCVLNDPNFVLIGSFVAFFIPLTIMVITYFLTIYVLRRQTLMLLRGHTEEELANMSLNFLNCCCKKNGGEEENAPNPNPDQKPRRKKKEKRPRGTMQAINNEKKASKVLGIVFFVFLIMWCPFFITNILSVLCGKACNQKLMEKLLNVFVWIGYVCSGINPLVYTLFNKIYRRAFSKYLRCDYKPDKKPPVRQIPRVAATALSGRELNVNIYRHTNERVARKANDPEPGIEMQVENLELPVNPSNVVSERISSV
Put plainly: Displacement of [3H]mesulergine from A9 cells stably expressing rat 5-hydroxytryptamine 2C receptor. Format: cell-based. On the technique in general: Displacement assays read how much labelled ligand stays bound in the presence of the test substance.

For the molecule `COc1cc(CC(C)N)c(OC)cc1Br` (stereo unspecified) [BROLAMFETAMINE], the pKi is 7.19.
